Molecular target: Human PD1 (50AFR), [VEGF leader]-Sino-Bio-PD-1_H-[His9G] (human) (UniProt Q15116)
Assay: SPR (Biacore T200 or 4000), antibody captured via anti-human Fc, antigen as analyte

By UniProt entry, the sequences of proteins in these tests, tags left out. Residues count along the entry.
UniProt Q15116, 25-167: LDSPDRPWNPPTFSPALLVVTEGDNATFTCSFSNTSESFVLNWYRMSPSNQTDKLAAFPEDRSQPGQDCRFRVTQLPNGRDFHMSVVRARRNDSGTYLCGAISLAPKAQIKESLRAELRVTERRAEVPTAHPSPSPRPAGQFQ

## Keytruda (25ADU) (antibody)
  Kd: 1.4 nM

Reference: patent US20220251194A1
